{"source": "paper PMC11145868", "about": "“Protein target similarity is positive predictor of in vitro antipathogenic activity: a drug repurposing strategy for Plasmodium falciparum” (Journal of Cheminformatics, 2024)", "experiment": "in vitro", "conditions": "human", "data": [{"smiles": "COc1ccc(C[C@H]2NC[C@H](O)[C@H]2OC(C)=O)cc1", "note": "[Anisomycin]", "values": [{"measurement": "CC50", "result": 82, "unit": "nM"}]}]}
